System: 3T3 fibroblasts
Details: after 4 to 8 hours under liquid crystal

CCCCCc1ccc(-c2ccc(C#N)cc2)cc1 [5CB, 4-cyano-4′-pentylbiphenyl]
morphology of cells after removal of liquid crystal: rounded up 3T3 fibroblasts were observed, and many were displaced from the surface by rinsing

Reference: patent US7951577B2, “Liquid crystals with reduced toxicity and applications thereof” (Wisconsin Alumni Research Foundation, priority 2003, dated 2011)
